{"source": "patent US20030143729A1", "about": "(Synaptic Pharmaceutical Corporation, priority 1992, published 2003)", "origin": "cited, not measured here", "target": "T1, GAT-3 (Rattus norvegicus, UniProt P31647)", "T1 sequence (P31647 1-627)": "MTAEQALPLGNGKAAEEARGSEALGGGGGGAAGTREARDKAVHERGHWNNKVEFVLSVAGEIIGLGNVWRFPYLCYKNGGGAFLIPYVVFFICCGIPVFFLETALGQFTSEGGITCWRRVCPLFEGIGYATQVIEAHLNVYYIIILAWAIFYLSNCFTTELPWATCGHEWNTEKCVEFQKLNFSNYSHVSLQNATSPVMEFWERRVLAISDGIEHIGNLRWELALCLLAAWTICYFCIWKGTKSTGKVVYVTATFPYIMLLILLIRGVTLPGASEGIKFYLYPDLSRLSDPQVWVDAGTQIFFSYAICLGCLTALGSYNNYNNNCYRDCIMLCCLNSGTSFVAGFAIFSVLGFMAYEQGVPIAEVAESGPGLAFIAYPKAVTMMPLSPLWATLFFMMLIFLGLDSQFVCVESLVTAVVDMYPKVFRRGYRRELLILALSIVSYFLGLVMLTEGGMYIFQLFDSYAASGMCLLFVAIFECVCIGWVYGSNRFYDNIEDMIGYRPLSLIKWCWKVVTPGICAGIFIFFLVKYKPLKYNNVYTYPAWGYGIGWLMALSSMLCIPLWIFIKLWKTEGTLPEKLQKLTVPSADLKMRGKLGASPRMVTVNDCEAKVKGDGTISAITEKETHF", "details": "read-out: Km for GABA, GAT-3 (ref. 9); cited from earlier work"}
{"compound": "NCCCC(=O)O", "note": "[GABA, gamma-aminobutyric acid]", "values": [{"measurement": "Km", "value": 10, "unit": "µM"}]}
